## Ab-14 heavy chain CDR variants: yeast mating affinities

Target: peptide PDVDLGDISGINAS, taken from heptad repeat 2 (HR2) of SARS-CoV-2 spike.

Parent scFv Ab-14: VH joined to VL by the linker GGGGSGGGGSGGGGS. Changes lie in the heavy chain CDRs alone.
VH: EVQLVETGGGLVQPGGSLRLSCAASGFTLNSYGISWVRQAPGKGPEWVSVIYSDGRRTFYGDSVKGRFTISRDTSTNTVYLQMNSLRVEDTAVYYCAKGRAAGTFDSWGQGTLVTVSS
VL: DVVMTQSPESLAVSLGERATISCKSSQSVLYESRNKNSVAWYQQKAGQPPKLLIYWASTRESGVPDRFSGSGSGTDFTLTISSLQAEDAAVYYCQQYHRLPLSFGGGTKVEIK

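The starting antibody came from a phage panning campaign against this peptide. In library AAYL49, one, two or three CDR residues were substituted; doubles and triples were drawn at random. AlphaSeq pools MATa yeast showing the antibodies with MATalpha yeast showing the peptide. The frequency of each diploid, read from paired DNA barcodes, reflects how well the two displayed proteins bind. A regression on co-assayed BCL2-family reference pairs converts the normalised counts of each replicate to an apparent Kd. There are three technical replicates.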

Changes read parent residue, position, new residue, counted from the first residue of the VH shown. All variants listed here change F27 of the VH, counted from its first residue. Each Kd is an estimate from the mating assay, the geometric mean of the replicates in which the pair was seen; lower is stronger. Where no diploid with the target was found in any replicate, the entry reads "no signal": below detection, most likely a poor binder, though not proof of it. As a blank, each scFv also met three strains without target: over library AAYL49, 15% of these pairings were detected, typically at 11 µM and seldom below 680 nM.

With F27I S31W V50R the result was 50 µM (2 of 3 replicates). The variant F27C I34L F59K gave 75 µM (3 of 3 replicates). With F27N G33M S53R the result was 150 µM (1 of 3 replicates). For F27Q I34S G99T, the assay gave no signal (0 of 3 replicates). For F27H S31K T104F, the assay gave no signal (0 of 3 replicates). The variant F27Q Y32L S63E gave 43 µM (1 of 3 replicates). For F27S R100M, the assay gave 2.5 µM (3 of 3 replicates). The variant F27K L29F D54V showed no signal (0 of 3 replicates).

For F27D, the assay gave 4.9 nM (3 of 3 replicates). With F27M I34W F105E the result was 8.7 µM (1 of 3 replicates). For F27N D62W V64P, the assay gave no signal (0 of 3 replicates). The variant F27G Y60I A102F gave no signal (0 of 3 replicates). For G26S F27H K65N, the assay gave 230 nM (3 of 3 replicates). The variant F27A N30G A102S gave 13 µM (2 of 3 replicates). With G26I F27H S63A the result was 6.0 nM (3 of 3 replicates). The variant F27W G33Q S107K showed 72 µM (1 of 3 replicates).

The variant F27E N30A S63V showed 1.8 µM (3 of 3 replicates). For F27E T104P, the assay gave no signal (0 of 3 replicates). For F27N N30K S35K, the assay gave no signal (0 of 3 replicates). For F27N G61T A101V, the assay gave 1.2 nM (3 of 3 replicates). The variant F27E G103W gave no signal (0 of 3 replicates). For F27W F105E D106V, the assay gave 290 nM (1 of 3 replicates). The variant F27K R57P R100D gave 71 µM (3 of 3 replicates). For F27W L29S A102Q, the assay gave 19 µM (1 of 3 replicates).

The variant F27P G103Q F105M gave no signal (0 of 3 replicates). The variant F27M S53Q gave 2.0 µM (3 of 3 replicates). For F27P S31Q Y52C, the assay gave no signal (0 of 3 replicates). With F27Q S31R Y60E the result was no signal (0 of 3 replicates). The variant F27L G55Y G99P gave no signal (0 of 3 replicates). With F27V L29N F105Y the result was no signal (0 of 3 replicates).

Extract of 4 entries:

For F27P S31Q Y52C, the assay gave no signal (0 of 3 replicates).
For F27H S31K T104F, the assay gave no signal (0 of 3 replicates).
For F27N D62W V64P, the assay gave no signal (0 of 3 replicates).
For F27C I34L F59K, the assay gave 75 µM (3 of 3 replicates).

Source: Engelhart et al. 2022 (doi:10.1038/s41597-022-01779-4), MIT Lincoln Laboratory and A-Alpha Bio; data file from the FLAb repository.